Experimental data as given in patent publication US20090023666A1, “Modulators of Hypoxia Inducible Factor-1 and Related Uses” (priority 2006, published 2009).

How the values were obtained:
[1] = test system: 5-aminoimidazole-4-carbox-amide riboside (AICAR); assay: AICAR-RA reporter assay; conditions: read-out: AICAR-RA ED50, indicative of the inhibition of glucose metabolism
Na-K-ATPase [2] = biological target: Na-K-ATPase (Canis lupus familiaris, UniProt P50997); assay: Na-K-ATPase enzyme assay (inorganic phosphate liberated from ATP), dog kidney; conditions: read-out: ATPase Inh, IC50 Dog kidney
A549 = conditions: read-out: APA (A549) IC50
Caki-1 (CAKI) = conditions: read-out: APA (Caki-1) IC50
Na-K-ATPase [3] = assay: Na-K-ATPase enzyme assay (inorganic phosphate liberated from ATP), pig brain; conditions: read-out: ATPase Inh, IC50 Pig brain

Row | SMILES | EC50 [1] | IC50 (Na-K-ATPase [2]) | IC50 (A549) | IC50 (Caki-1 (CAKI)) | IC50 (Na-K-ATPase [3])
1 | CSCC(=O)O[C@@H]1C=C2CC[C@@H]3[C@H](CC[C@]4(C)[C@@H](c5ccc(=O)oc5)CC[C@]34O)[C@@]2(C)CC1 | 112 nM | 180 nM | 14 nM | 202 nM | 312 nM
2 | CC(C)NC(=O)O[C@@H]1C=C2CCC3C(CC[C@]4(C)[C@@H](c5ccc(=O)oc5)CC[C@]34O)[C@@]2(C)CC1 (stereo partly drawn) | 112 nM | 279 nM | 29 nM | 197 nM | 273 nM
3 | COCC(=O)O[C@@H]1C=C2CC[C@@H]3[C@H](CC[C@]4(C)[C@@H](c5ccc(=O)oc5)CC[C@]34O)[C@@]2(C)CC1 | 111 nM | 220 nM | 11 nM | 141 nM | 250 nM
